Assay results reported in patent publication USRE39181E1, “Aqueous risperidone formulations” (priority 1994, dated 2006).
Where a name gives a salt, the structure may show the parent alone.

Experiment: physchem

Cc1nc2n(c(=O)c1CCN1CCC(c3noc4cc(F)ccc34)CC1)CCCC2 [risperidone hydrochloride]
solubility: 19.6 mg/mL
